Test results: US20250114416A1, “ANTIVIRAL C[…] EXTRACT AND STEROID COMPOUND AS ACTIVE INGREDIENTS” (priority 2022, published 2025)

Experiments:
Conditions in all cases: examples using ginseng (Table 1); mouse liver, oral twice a day for 2 weeks, 22.5 mg/kg extract and/or steroid; non-administered control = 1
[1] = system: Mx1 (Mx dynamin like GTPase 1) mRNA
[2] = system: Mx2 (Mx dynamin like GTPase 2) mRNA
[3] = system: Ifnb1 (interferon beta) mRNA

Row | Structure (SMILES) | Relative mRNA expression level Mx1 [1] | Relative mRNA expression level Mx2 [2] | Relative mRNA expression level Ifnb1 [3]
1 | C[C@]12C=CC(=O)C=C1CC[C@H]1[C@@H]3C[C@@H](O)[C@](O)(C(=O)CO)[C@@]3(C)C[C@H](O)[C@@]12F [Comparative Example 7, Triamcinolone] | 0.9 ± 0.2 | 0.7 ± 0.3 | 0.7 ± 0.2
2 | C[C@@H]1C[C@H]2[C@@H]3CCC4=CC(=O)C=C[C@]4(C)[C@@]3(F)[C@@H](O)C[C@]2(C)[C@@]1(O)C(=O)CO [Comparative Example 4, Dexamethasone] | 0.7 ± 0.2 | 0.8 ± 0.3 | 0.7 ± 0.2
3 | C[C@]12C=CC(=O)C=C1CC[C@@H]1[C@@H]2[C@@H](O)C[C@@]2(C)[C@H]1CC[C@]2(O)C(=O)CO [Comparative Example 6, Prednisolone] | 0.8 ± 0.2 | 0.8 ± 0.3 | 0.8 ± 0.2
4 | C[C@]12CCC(=O)C=C1CC[C@@H]1[C@@H]2[C@@H](O)C[C@@]2(C)[C@H]1CC[C@]2(O)C(=O)CO [Comparative Example 5, Hydrocortisone] | 0.6 ± 0.2 | 0.7 ± 0.3 | 0.7 ± 0.2
